Test [1] addresses T1, Citron Rho-interacting kinase (Homo sapiens, UniProt O14578). The following applies: Sf9, dose 10.0 µM, time 20.0 min.
Test [2] deals with T1, Citron Rho-interacting kinase. The following applies: dose 100.0 µM, time 20.0 min.
The target is the same in test [3]. The following applies: dose 1.0 mM, time 20.0 min.
The target is the same in test [4]. The note with it: Sf9, dose 1.0 mM, time 20.0 min.

Protein sequences, listed by entry. Tags and fused reporters are not part of them.
UniProt O14578, whole entry: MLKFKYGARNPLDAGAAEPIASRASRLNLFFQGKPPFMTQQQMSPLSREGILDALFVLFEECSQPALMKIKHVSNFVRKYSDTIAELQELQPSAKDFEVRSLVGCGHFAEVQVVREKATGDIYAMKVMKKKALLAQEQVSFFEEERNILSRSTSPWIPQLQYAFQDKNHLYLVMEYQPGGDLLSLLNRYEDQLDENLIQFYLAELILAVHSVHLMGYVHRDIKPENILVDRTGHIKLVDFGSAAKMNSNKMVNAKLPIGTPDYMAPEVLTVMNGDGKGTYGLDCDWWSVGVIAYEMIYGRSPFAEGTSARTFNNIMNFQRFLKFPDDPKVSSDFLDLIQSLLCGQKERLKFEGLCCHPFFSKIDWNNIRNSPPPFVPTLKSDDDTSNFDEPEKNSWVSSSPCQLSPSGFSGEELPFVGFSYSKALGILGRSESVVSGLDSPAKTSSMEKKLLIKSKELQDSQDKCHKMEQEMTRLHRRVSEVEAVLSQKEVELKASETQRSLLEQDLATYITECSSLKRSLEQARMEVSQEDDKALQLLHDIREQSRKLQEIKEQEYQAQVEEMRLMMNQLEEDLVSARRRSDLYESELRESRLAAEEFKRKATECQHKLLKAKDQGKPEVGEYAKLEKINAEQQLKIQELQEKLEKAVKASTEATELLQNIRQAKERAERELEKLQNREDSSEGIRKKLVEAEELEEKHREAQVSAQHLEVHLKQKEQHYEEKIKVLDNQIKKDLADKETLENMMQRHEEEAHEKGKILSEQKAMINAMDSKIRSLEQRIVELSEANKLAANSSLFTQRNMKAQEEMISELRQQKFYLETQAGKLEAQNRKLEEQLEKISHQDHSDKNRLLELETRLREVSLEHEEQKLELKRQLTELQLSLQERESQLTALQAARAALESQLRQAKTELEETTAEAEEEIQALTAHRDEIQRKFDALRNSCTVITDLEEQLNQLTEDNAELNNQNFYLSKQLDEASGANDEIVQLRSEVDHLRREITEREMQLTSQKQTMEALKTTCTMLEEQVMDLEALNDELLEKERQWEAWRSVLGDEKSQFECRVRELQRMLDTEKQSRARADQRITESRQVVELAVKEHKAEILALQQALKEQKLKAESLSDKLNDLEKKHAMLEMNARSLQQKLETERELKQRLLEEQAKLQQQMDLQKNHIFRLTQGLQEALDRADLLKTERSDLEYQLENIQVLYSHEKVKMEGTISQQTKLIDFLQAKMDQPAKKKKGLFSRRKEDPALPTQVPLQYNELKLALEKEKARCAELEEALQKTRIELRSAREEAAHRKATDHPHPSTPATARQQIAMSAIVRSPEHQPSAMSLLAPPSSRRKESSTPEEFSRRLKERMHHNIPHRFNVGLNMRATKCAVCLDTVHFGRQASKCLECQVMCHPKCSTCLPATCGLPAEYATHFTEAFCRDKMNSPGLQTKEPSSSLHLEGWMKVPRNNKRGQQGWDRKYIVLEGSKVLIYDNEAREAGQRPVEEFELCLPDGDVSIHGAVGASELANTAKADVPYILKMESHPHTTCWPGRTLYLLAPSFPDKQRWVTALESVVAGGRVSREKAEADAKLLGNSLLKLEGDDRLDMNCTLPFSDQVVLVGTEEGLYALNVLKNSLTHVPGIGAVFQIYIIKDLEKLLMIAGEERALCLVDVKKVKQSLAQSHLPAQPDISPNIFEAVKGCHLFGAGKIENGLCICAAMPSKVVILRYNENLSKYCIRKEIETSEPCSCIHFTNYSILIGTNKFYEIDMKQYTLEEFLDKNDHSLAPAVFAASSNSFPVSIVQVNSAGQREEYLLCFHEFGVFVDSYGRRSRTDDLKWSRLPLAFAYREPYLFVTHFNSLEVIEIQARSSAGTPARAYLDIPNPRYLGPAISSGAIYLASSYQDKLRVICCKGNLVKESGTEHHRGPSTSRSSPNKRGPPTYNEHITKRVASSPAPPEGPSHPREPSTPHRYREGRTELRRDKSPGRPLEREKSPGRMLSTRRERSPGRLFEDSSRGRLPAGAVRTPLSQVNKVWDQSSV

For the compound `Cc1cc2c(-c3ccc(NC(=O)[C@H](N)CC(C)(C)C)cc3C)cncc2[nH]1`, the ΔTm in test [1] was -0.3 °C; in test [2], -0.2 °C.

Consider `Cc1ccc2c(c1)C(=O)[C@]1(O)CCN(c3ccc(N)cc3)C1=N2`, for which the ΔTm in test [3] was found to be 1 °C; in test [4] it was 0.8 °C.

`Cc1cc2c(-c3ccc(NC(=O)[C@H](N)CC(C)(C)C)cc3C)ccnc2[nH]1`: the ΔTm in test [1] and in test [2] was 2.1 °C in each case.

For the origin of these results see ChEMBL document CHEMBL5537207, “Discovery and Characterization of Selective, First-in-Class Inhibitors of Citron Kinase” (J Med Chem, 2024).
